How the values were obtained:
kappa opioid receptor [1] = target: T1, kappa opioid receptor (Homo sapiens (Human), UniProt P41145); assay: In vitro kappa-opioid receptor binding assay ([3H]-U69,593 displacement); conditions: read-out: Ki [Average ± Std Deviation] Opioid Receptor Kappa; membranes from recombinant HEK-293 cells
delta opioid receptor = delta opioid receptor (Homo sapiens (Human), UniProt P41143); assay: In vitro delta-opioid receptor binding assay ([3H]-Naltrindole displacement); conditions: read-out: Ki [Average ± Std Deviation] Opioid Receptor Delta; recombinant receptor expressed in CHO-K1 cells
μ-opioid receptor = μ-opioid receptor (Homo sapiens (Human), UniProt P35372); assay: In vitro mu-opioid receptor binding assay ([3H]-diprenorphine displacement); conditions: read-out: Ki [Average ± Std Deviation] Opioid Receptor Mu
[2] = target: T2, human opioid receptor-like (ORL-1) (Homo sapiens (Human), UniProt P41146); assay: In vitro ORL-1 receptor [35S]GTPγS functional assay; assay type: biochemical; conditions: mean ± SEM; for EC50: read-out: GTPγS ORL-1 EC50
[3] = target: T2, human opioid receptor-like (ORL-1); assay: In vitro ORL-1 receptor binding assay ([3H]-nociceptin displacement); conditions: read-out: Ki [Average ± Std Deviation] ORL-1; membranes from recombinant HEK-293 cells
kappa opioid receptor [4] = target: T1, kappa opioid receptor; assay: In vitro kappa-opioid receptor [35S]GTPγS functional assay; assay type: biochemical; conditions: mean ± SEM; for EC50: read-out: GTPγS Opioid Receptor Kappa EC50

By UniProt entry, the sequences of proteins in these tests, tags left out. Where a name states a change or a piece, a line headed by the entry shows the natural chain unless it says otherwise.
UniProt P41145: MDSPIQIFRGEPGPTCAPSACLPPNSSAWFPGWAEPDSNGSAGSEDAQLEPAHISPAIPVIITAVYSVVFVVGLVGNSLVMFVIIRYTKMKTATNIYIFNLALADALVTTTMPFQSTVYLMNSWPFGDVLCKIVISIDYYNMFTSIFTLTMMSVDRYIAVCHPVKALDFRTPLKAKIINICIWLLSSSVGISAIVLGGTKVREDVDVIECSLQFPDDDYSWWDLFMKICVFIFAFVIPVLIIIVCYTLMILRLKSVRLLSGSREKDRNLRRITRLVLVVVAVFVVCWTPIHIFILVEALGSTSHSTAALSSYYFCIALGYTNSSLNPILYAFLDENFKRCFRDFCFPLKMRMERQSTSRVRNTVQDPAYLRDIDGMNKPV
UniProt P41143: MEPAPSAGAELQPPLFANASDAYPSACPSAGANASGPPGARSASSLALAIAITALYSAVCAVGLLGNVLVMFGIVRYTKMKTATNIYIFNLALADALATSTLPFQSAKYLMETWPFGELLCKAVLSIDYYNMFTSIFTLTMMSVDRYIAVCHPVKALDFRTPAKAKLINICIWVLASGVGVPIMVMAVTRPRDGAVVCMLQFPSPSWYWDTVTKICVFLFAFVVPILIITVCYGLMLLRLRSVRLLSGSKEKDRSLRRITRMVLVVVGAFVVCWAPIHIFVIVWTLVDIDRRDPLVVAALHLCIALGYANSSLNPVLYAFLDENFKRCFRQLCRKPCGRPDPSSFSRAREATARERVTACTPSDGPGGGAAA
UniProt P35372: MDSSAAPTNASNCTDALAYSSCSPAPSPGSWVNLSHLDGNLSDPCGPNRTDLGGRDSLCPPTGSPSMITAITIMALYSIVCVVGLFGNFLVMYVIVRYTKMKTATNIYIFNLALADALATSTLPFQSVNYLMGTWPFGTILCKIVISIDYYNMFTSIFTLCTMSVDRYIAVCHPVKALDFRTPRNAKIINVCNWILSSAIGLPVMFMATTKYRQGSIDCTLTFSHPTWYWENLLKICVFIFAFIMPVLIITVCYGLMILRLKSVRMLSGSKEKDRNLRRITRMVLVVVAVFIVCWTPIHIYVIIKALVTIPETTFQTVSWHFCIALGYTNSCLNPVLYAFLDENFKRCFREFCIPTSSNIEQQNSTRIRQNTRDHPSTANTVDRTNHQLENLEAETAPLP
UniProt P41146: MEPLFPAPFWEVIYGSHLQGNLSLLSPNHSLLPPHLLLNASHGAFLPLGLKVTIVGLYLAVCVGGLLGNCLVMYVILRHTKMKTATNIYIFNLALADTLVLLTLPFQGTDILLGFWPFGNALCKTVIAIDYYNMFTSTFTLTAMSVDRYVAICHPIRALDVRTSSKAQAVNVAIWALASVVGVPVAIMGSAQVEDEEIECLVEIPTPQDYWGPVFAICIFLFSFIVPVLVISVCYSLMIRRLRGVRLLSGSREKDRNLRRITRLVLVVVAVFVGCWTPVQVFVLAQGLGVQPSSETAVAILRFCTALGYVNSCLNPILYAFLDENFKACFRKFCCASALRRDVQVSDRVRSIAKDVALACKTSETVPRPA

| Substance | Ki (kappa opioid receptor [1]) | Ki (delta opioid receptor) | Ki (μ-opioid receptor) | GTPγS ORL-1 Emax [2] | Ki [3] | EC50 [2] | GTPγS Opioid Receptor Kappa Emax (kappa opioid receptor [4]) | EC50 (kappa opioid receptor [4]) |
| --- | --- | --- | --- | --- | --- | --- | --- | --- |
| 1-(4-((endo)-8-cyclooctyl-8-azabicyclo[3.2.1]octan-3-yl)-3-oxo-3,4-dihydroquinoxalin-2-yl)-3-hydroxypyrrolidine-3-carboxylic acid | 1650 nM | 8880 nM | 5200 nM | 40.3 ± 2.3% | 46.1 nM |  |  |  |
| 2,2′-(2-(4-((endo)-8-cyclooctyl-8-azabicyclo[3.2.1]octan-3-yl)-3-oxo-3,4-dihydroquinoxalin-2-ylamino)ethylazanediyl)diacetic acid | 3320 nM | > 20000 nM | 1080 nM | 101.3% | 4.4 nM | 53.6 nM |  |  |
| 2-(1-(4-((endo)-8-cyclooctyl-8-azabicyclo[3.2.1]octan-3-yl)-3-oxo-3,4-dihydroquinoxalin-2-yl)piperidin-4-yl)acetic acid |  | 1300 nM | 4700 nM | 50.3 ± 4.4% |  |  |  |  |
| 2-(1-(4-((endo)-8-cyclooctyl-8-azabicyclo[3.2.1]octan-3-yl)-3-oxo-3,4-dihydroquinoxalin-2-yl)pyrrolidin-3-yl)acetic acid | 1200 nM | 24100 nM |  | 73 ± 2% | 52.1 nM | 924 nM |  |  |
| 2-(2-(4-((endo)-8-cyclooctyl-8-azabicyclo[3.2.1]octan-3-yl)-3-oxo-3,4-dihydroquinoxalin-2-ylamino)acetamido)acetic acid | 1490 nM | 37400 nM | 1990 nM | 67 ± 1.5% | 60.4 nM | 956 nM |  |  |
| 2-(2-(4-((endo)-8-cyclooctyl-8-azabicyclo[3.2.1]octan-3-yl)-3-oxo-3,4-dihydroquinoxaline-2-carboxamido)thiazol-4-yl)acetic acid |  |  |  | 29 ± 3% | 144 nM | 503 nM |  |  |
| 2-(4-(4-((endo)-8-cyclooctyl-8-azabicyclo[3.2.1]octan-3-yl)-3-oxo-3,4-dihydroquinoxalin-2-yl)-2-oxopiperazin-1-yl)acetic acid | 1360 nM | 2740 nM | 1600 nM | 84 ± 1.2% | 44.8 nM | 1300 nM |  |  |
| 2-(4-((endo)-8-cyclooctyl-8-azabicyclo[3.2.1]octan-3-yl)-3-oxo-3,4-dihydroquinoxalin-2-ylamino)benzoic acid |  |  |  |  | 538 nM |  |  |  |
| 2-(4-((exo)-8-cyclooctyl-8-azabicyclo[3.2.1]octan-3-yl)-3-oxo-3,4-dihydroquinoxalin-2-ylamino)acetic acid |  |  |  |  | 1720 nM |  |  |  |
| 2-((2-amino-2-oxoethyl)(2-(4-((endo)-8-cyclooctyl-8-azabicyclo[3.2.1]octan-3-yl)-3-oxo-3,4-dihydroquinoxalin-2-ylamino)ethyl)amino)acetic acid | 740 nM | > 20000 nM |  | 80.3 ± 3.8% | 16.8 nM | 277 nM | 9.3 ± 1.3% | 4460 nM |
| 2-((4-((endo)-8-cyclooctyl-8-azabicyclo[3.2.1]octan-3-yl)-3-oxo-3,4-dihydroquinoxalin-2-yl)(2-hydroxyethyl)amino)acetic acid | 2030 nM | 548000 nM | 11900 nM |  | 61.7 nM |  |  |  |
| 3-(4-((endo)-8-cyclooctyl-8-azabicyclo[3.2.1]octan-3-yl)-3-oxo-3,4-dihydroquinoxalin-2-ylamino)isonicotinic acid | 64.2 nM | 32200 nM |  | 58 ± 1.2% | 502 nM | 212 nM | 10.0 ± 1.2% | 13400 nM |
| 3-(4-((endo)-8-cyclooctyl-8-azabicyclo[3.2.1]octan-3-yl)-3-oxo-3,4-dihydroquinoxaline-2-carboxamido)propanoic acid |  |  |  |  | 382 nM |  |  |  |
| 3-oxo-4-(1-(1-propylcyclooctyl)piperidin-4-yl)-3,4-dihydroquinoxaline-2-carboxylate | 3270 nM | 538000 nM | 57800 nM |  | 45.5 nM |  |  |  |
| 3-oxo-4-((endo)-8-(pentan-3-yl)-8-azabicyclo[3.2.1]octan-3-yl)-3,4-dihydroquinoxaline-2-carboxylic acid |  |  |  |  | 1830 nM |  |  |  |
| 4-(1-(1-ethylcyclooctyl)piperidin-4-yl)-3-oxo-3,4-dihydroquinoxaline-2-carboxylate | 2470 nM | 524000 nM | 16300 nM |  | 30.2 nM |  |  |  |
| 4-((4-((endo)-8-cyclooctyl-8-azabicyclo[3.2.1]octan-3-yl)-3-yl)-3-oxo-3,4-dihydroquinoxalin-2-ylamino)methyl)benzoic acid |  |  |  |  | 456 nM |  |  |  |
| 4-((endo)-8-(1,2-dihydroacenaphthylen-1-yl)-8-azabicyclo[3.2.1]octan-3-yl)-3-oxo-3,4-dihydroquinoxaline-2-carboxylic acid | 1600 nM |  | 2660 nM | 99.3 ± 1.3% | 52.1 nM | 1020 nM |  |  |
| 4-((endo)-8-(2,3-dihydro-1H-inden-2-yl)-8-azabicyclo[3.2.1]octan-3-yl)-3-oxo-3,4-dihydroquinoxaline-2-carboxylic acid |  |  |  |  | 596 nM |  |  |  |

| Substance | Ki (kappa opioid receptor [1]) | Ki (delta opioid receptor) | Ki (μ-opioid receptor) | GTPγS ORL-1 Emax [2] | Ki [3] | EC50 [2] | GTPγS Opioid Receptor Kappa Emax (kappa opioid receptor [4]) | EC50 (kappa opioid receptor [4]) |
| --- | --- | --- | --- | --- | --- | --- | --- | --- |
| 4-((endo)-8-(2,6-dimethylhept-4-yn-3-yl)-8-azabicyclo[3.2.1]octan-3-yl)-3-oxo-3,4-dihydroquinoxaline-2-carboxylic acid |  |  |  |  | 740 nM |  |  |  |
| 4-((endo)-8-(6-methylhept-4-yn-3-yl)-8-azabicyclo[3.2.1]octan-3-yl)-3-oxo-3,4-dihydroquinoxaline-2-carboxylic acid |  |  |  |  | 383 nM |  |  |  |
| 4-((endo)-8-((cis)-4-tert-butylcyclohexyl)-8-azabicyclo[3.2.1]octan-3-yl)-3-oxo-3,4-dihydroquinoxaline-2-carboxylic acid |  |  |  |  | 1190 nM |  |  |  |
| 4-((endo)-8-((exo)-bicyclo[3.3.1]nonan-9-yl)-8-azabicyclo[3.2.1]octan-3-yl)-3-oxo-3,4-dihydroquinoxaline-2-carboxylic acid | 1550 nM | 1970 nM | 1030 nM |  | 4.8 nM |  |  |  |
| 4-((endo)-8-((trans)-4-isopropylcyclohexyl)-8-azabicyclo[3.2.1]octan-3-yl)-3-oxo-3,4-dihydroquinoxaline-2-carboxylic acid |  |  |  |  | 400 nM |  |  |  |
| 4-((endo)-8-((trans)-4-tert-butylcyclohexyl)-8-azabicyclo[3.2.1]octan-3-yl)-3-oxo-3,4-dihydroquinoxaline-2-carboxylic acid |  |  |  |  | 962 nM |  |  |  |
| 4-((endo)-8-cycloheptyl-8-azabicyclo[3.2.1]octan-3-yl)-3-oxo-3,4-dihydroquinoxaline-2-carboxylic acid |  |  |  |  | 1340 nM |  |  |  |
| 4-((endo)-8-cyclononyl-8-azabicyclo[3.2.1]octan-3-yl)-3-oxo-3,4-dihydroquinoxaline-2-carboxylic acid | 469 nM | 1520 nM | 396 nM |  | 2 nM |  |  |  |
| 4-((endo)-9-cyclodecyl-9-azabicyclo[3.3.1]nonan-3-yl)-3-oxo-3,4-dihydroquinoxaline-2-carboxylic acid | 565 nM | > 20000 nM |  | 104 ± 4.6% | 1.8 nM | 11.6 nM | 3.3 ± 1.9% | > 20000 nM |
| 4-((endo)-9-cyclooctyl-3-methyl-3,9-diazabicyclo[3.3.1]nonan-7-yl)-3-oxo-3,4-dihydroquinoxaline-2-carboxylic acid |  |  |  |  | 3290 nM |  |  |  |
| (2S)-2-(4-((endo)-8-cyclooctyl-8-azabicyclo[3.2.1]octan-3-yl)-3-oxo-3,4-dihydroquinoxalin-2-ylamino)-3-hydroxypropanoic acid |  |  |  | 29 ± 2% | 8.2 nM | 19.1 nM |  |  |
| (2S)-2-(4-((exo)-8-cyclooctyl-8-azabicyclo[3.2.1]octan-3-yl)-3-oxo-3,4-dihydroquinoxalin-2-yl amino)-3-hydroxypropanoic acid |  |  |  |  | 285 nM |  |  |  |
| (R)-2-(4-((endo)-8-cyclooctyl-8-azabicyclo[3.2.1]octan-3-yl)-3-oxo-3,4-dihydroquinoxalin-2-ylamino)succinic acid |  |  |  |  | 437 nM |  |  |  |
| endo-4-(8-adamantan-2-yl-8-aza-bicyclo[3.2.1]oct-3-yl)-3-oxo-3,4-dihydro-quinoxaline-2-carboxylic acid | 3500 nM |  |  | 33.3 ± 2.2% | 89.9 nM | 271 nM |  |  |
| endo-4-[8-(3-hydroxy-adamantan-1-yl)-8-aza-bicyclo[3.2.1]oct-3-yl]-3-oxo-3,4-dihydro-quinoxaline-2-carboxylic acid |  |  |  |  | 912 nM |  |  |  |
| endo-4-[9-(3,5-dimethyl-adamantan-1-yl)-9-aza-bicyclo[3.3.1]non-3-yl]-3-oxo-3,4-dihydro-quinoxaline-2-carboxylic acid | 6870 nM |  | 4750 nM |  | 38.1 nM |  |  |  |
| ethyl 4-((endo)-9-cyclooctyl-3-oxa-9-azabicyclo[3.3.1]nonan-7-yl)-3-oxo-3,4-dihydroquinoxaline-2-carboxylate |  |  |  |  | 911 nM |  |  |  |
| exo-4-(8-adamantan-1-yl-8-aza-bicyclo[3.2.1]oct-3-yl)-3-oxo-3,4-dihydro-quinoxaline-2-carboxylic acid |  |  |  |  | 275 nM |  |  |  |
